Test results taken from PMC9931213, “Structural basis for ATG9A recruitment to the ULK1 complex in mitophagy initiation” (Science Advances, 2023).

Chains of the proteins cited; added tags and fusions are not shown. Residues count along the entry.
UniProt O75143, 12-200, chain 1 of 2: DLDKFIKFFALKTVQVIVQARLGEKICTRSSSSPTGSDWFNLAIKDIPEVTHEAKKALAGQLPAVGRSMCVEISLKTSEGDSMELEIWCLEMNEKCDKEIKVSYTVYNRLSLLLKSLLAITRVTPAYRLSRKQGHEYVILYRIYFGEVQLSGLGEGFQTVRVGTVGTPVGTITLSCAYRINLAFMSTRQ
ATG13 (12–200):ATG101 (1–198) complex, UniProt Q9BSB4, 1-198, chain 2 of 2: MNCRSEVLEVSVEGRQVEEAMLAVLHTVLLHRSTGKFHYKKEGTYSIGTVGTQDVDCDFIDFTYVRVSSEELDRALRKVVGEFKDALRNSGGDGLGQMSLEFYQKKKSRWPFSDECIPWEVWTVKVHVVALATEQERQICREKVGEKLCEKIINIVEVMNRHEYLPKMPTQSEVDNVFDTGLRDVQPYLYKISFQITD

Biological target: ATG13 (12–200):ATG101 (1–198) complex (human, UniProt O75143 12-200; Q9BSB4 1-198)
Assay: ITC; MBP-ATG9 (801–839) 240 μM injected (13 injections of 2.7 μl) into 0.2 ml of 17 μM ATG101-ATG13 HORMA complex; ITC buffer (25 mM Hepes pH 7.5, 150 mM NaCl, 1 mM MgCl2, 1 mM TCEP); one-site model; repeated four times
Details: both partners purified

Kd: 2400 ± 300 nM | stoichiometry N: 0.82 ± 0.03
B1: MBP-ATG9A (801–839) (domain or fragment, human, UniProt Q7Z3C6 801-839, looked up)
chain: FSRLPLGGWAEDGQSASRHPEPVPEEGSEDELPPQVHKV
notes: source: HEK GnTi- cells, transfected, purified (amylose resin, Superose 6); not shown: MBP, N-terminal, kept
